In publication PMC9328650 (British Journal of Pharmacology, 2021):

Tested on: integrin αIIbβ3 activation on human platelets
Settings: 0.1–5 μM; CRP-XL 0.25 μg·ml^−1

COc1cc(C(=O)NS(=O)(=O)c2ccccc2C)ccc1Cc1cn(C)c2ccc(NC(=O)OC3CCCC3)cc12 [zafirlukast]
Effect on fibrinogen binding: showed a trend towards inhibition but did not reach significance
